The chains behind the UniProt entries cited, without tags or fusion partners. Residues count along the entry.
UniProt P10636, 561-686 P618L limits assumed: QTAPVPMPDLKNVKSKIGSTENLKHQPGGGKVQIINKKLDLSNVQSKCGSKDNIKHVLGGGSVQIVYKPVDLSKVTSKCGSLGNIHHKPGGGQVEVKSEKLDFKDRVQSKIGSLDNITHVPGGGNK

According to US20130029983A1, “AMINOTHIENOPYRIDAZINE INHIBITORS OF TAU ASSEMBLY” (priority 2009, published 2013):

Columns and labels:
[1] = molecular target: T1, K18PL tau (Homo sapiens, UniProt P10636, P618L); experiment: Heparin-induced K18PL tau fibrillization assay monitored by ThT fluorescence; conditions: Table 4
Experimental: Tau fibril formation reactions were performed essentially as described (Crowe, A., Ballatore, C., Hyde, E., Trojanowski, J. Q., and Lee, V. M. Y. (2007) Biochemical and Biophysical Research Communications 358, 1-6). K18PL (2 μl of a 30 μM stock that also contained 0.24 μM Alexa Red-labeled K18PL) was dispensed into black 1536-well plates (Grenier) using a solenoid-based dispenser. Following transfer of 23 nL of test compound or DMSO vehicle by a pin tool from compound library plates, 2 μl/well of 40 μM heparin in reagent buffer was dispensed and the plate was centrifuged for 15 s at 1000 rpm in a table-top centrifuge. […]
K18PL fibril formation was quantified with a ThT assay as previously described (Crowe, A., Ballatore, C., Hyde, E., Trojanowski, J. Q., and Lee, V. M. Y. (2007) Biochemical and Biophysical Research Communications 358, 1-6). […] Plates were read on an Envision fluorescence plate reader with an excitation of 450 nm and an emission setting of 510 nm.
Compound effects on tau assembly were determined for the ThT and FP assays using the formula 1−(Fcompound− FDMSO)/( Fcontrol− FDMSO), where Fcontrol denotes the median plate fluorescence values (ThT assay) or mP values (FP assay) of the non-fibrillizing K18 KD control wells, FDMSO denotes the median value of the DMSO control wells, and Fcompound denotes the compound well values. […]

[2] = molecular target: T1, K18PL tau; experiment: K18PL tau centrifugation (sedimentation) assay, SDS-PAGE densitometry; conditions: Table 4
Experimental: The determination of compound-induced effects on the amount of tau that remains soluble upon centrifugation, and EM visualization of tau species following incubation with test compounds, were as previously described (Crowe, A., Ballatore, C., Hyde, E., Trojanowski, J. Q., and Lee, V. M. Y. (2007) Biochemical and Biophysical Research Communications 358, 1-6).
The solubility of test compounds in the sodium acetate buffer used for subsequent fibrillization reactions was determined by turbidimetric measurements. Compounds were then evaluated in a heparin-induced tau assembly assay, in which the fibrillization of the truncated K18 tau fragment (comprised of four MT-binding repeats) bearing the P301L mutation (K18PL) found in FTDP-17, was monitored by thioflavine-T (ThT) binding and fluorescence (FIG. 3A). (Crowe, A.; et al., Identification of aminothienopyridazine inhibitors of tau assembly by quantitative high-throughput screening. Biochemistry 2009, 48, 7732-45.) The inhibitory activity of test compounds was then confirmed with an orthogonal sedimentation assay in which compound-treated fibrillizing mixtures were centrifuged and quantitation of K18PL tau in the soluble and insoluble fraction was performed by densitometric analyses of SDS-PAGE (FIG. 3B). […]

In the case of CC(C)(C)OC(=O)Nc1nn(-c2ccc(Cl)cc2)c(=O)c2c(N)scc12, the “Tau ThT Assay % Inhib.” value ([1]; highest tested concentration (80 μM)) was 87%, the “Tau ThT Assay Log IC50” value ([1]; logarithm of IC50, K18PL tau ThT fluorescence inhibition) was −5.2 and the “Tau Cent. Assay % Soluble” value [2] was 64%.
